From patent publication US20230277591A1, “USE OF FLT3 CAR-T CELLS AND FLT3 INHIBITORS TO TREAT ACUTE MYELOID LEUKEMIA” (JULIUS-MAXIMILIANS-UNIVERSITÄT WÜRZBURG, priority 2017, published 2023)

How the values were obtained:
[1] = tested on: MOLM-13 AML cells; assay: MOLM-13 xenograft model of AML in NSG mice; type: in vivo, mouse; details: quizartinib 1 mg/kg i.p., after 5 doses
Procedure: All experiments were approved by the Institutional Animal Care and Use Committees of the participating institutions. NOD.Cg-Prkdc^scid Il2rg^tm1Wjl/SzJ (NSG) mice (female, 6-8 week old) were purchased from Charles River or bred in-house. Mice were inoculated with 1×10^6 ffluc_GFP^+ MOLM-13 AML cells by tail vein injection on day 0, and received a single dose of 5×10^6 T cells (in 200 µL of PBS/0.5% FCS) by tail vein injection on day 7. Crenolanib [15 mg/kg; 200 µL of 30% glycerol formal (Sigma Aldrich, Munich, Germany)] was administered intraperitoneally (i.p.) Monday-Friday for 3 consecutive weeks. AML progression/regression was assessed by serial bioluminescence imaging following i.p. administration of D-luciferin substrate (0.3 mg/g body weight) (Biosynth, Staad, Switzerland) using an IVIS Lumina imaging system (Perkin Elmer, Waltham, Massachusetts). Data was analyzed using Living Image software (Perkin Elmer).
All experiments were approved by the Institutional Animal Care and Use Committees of the participating institutions. […] AML progression/regression was assessed by serial bioluminescence imaging following i.p. administration of D-luciferin substrate (0.3 mg/g body weight) (Biosynth, Staad, Switzerland) using an IVIS Lumina imaging system (Perkin Elmer, Waltham, Massachusetts). Data was analyzed using Living Image software (Perkin Elmer).

[2] = tested on: THP-1 AML cells; assay: Flow cytometric analysis of FLT3 expression after FLT3 inhibitor treatment, THP-1; type: cell-based, human; details: THP-1, wild-type FLT3
Procedure: (§1) Cell surface expression of FLT3 (CD135) was analyzed using a conjugated mouse-anti-human-FLT3 mAb (clone 4G8, BD Pharmagin, BD Biosciences, Germany) and mouse IgG1 isotype control (BD Pharmagin). In brief, 1×10^6 cells were washed, resuspended in 100 µL PBS/0.5% fetal calf serum and stained with 5 µL of anti-FLT3 mAb or isotype for 30 minutes at 4° C.

[3] = tested on: K562 erythro-myeloid leukemia; assay: Flow cytometric analysis of FLT3 expression after FLT3 inhibitor treatment, K562; type: cell-based, human; details: K562, wild-type FLT3
Procedure: as §1

[4] = tested on: MOLM-13 AML cells; assay: Flow cytometric analysis of surface expression (FLT3, CD33, CD123) after FLT3 inhibitor treatment, MOLM-13; type: cell-based, human
Procedure: as §1
A complete medium change was performed every 7 days, MOLM-13 cells adjusted to 1×10^6/mL medium and 2 mL of this cell suspension plated per well in […] (Costar, Corning, NJ). After 2-3 weeks of culture with 10 nM midostaurine, MOLM-13 cells were exposed to exponentially increasing concentration of midostaurine for next 8-10 weeks to reach 50 nM midostaurin.

[5] = tested on: MV4;11 AML cells; assay: Flow cytometric analysis of surface expression after FLT3 inhibitor treatment, MV4;11; type: cell-based, human
Procedure: as §1

[6] = tested on: JeKo-1 mantle cell lymphoma; assay: Flow cytometric analysis of FLT3 expression after FLT3 inhibitor treatment, JeKo-1; type: cell-based, human; details: JeKo-1, wild-type FLT3
Procedure: as §1

## CC(C)(C)c1cc(NC(=O)Nc2ccc(-c3cn4c(n3)sc3cc(OCCN5CCOCC5)ccc34)cc2)no1 [quizartinib]
[1]
  FLT3 expression on MOLM-13 cells recovered from bone marrow: increased FLT3 expression
[2]
  increase in FLT3 expression upon exposure: did not occur
[3]
  increase in FLT3 expression upon exposure: did not occur
[4]; 10 nM midostaurin 2-3 weeks, 10 nM crenolanib 5 days, 1 nM quizartinib 5 days, p < 0.05
  FLT3 surface protein (MFI) compared to MOLM-13native: significantly higher levels
[4]; MOLM-13 after withdrawal
  FLT3 expression upon re-exposure to the drug: increased again
[4]; inhibitor-treated vs native
  CD33 expression on MOLM-13: not affected
  CD123 expression on MOLM-13: not affected
[5]; MV4;11 (FLT3-ITD+/+)
  FLT3 expression upon exposure: increase
[5]; inhibitor-treated
  CD33 expression on MV4;11: not affected
  CD123 expression on MV4;11: not affected
[6]
  increase in FLT3 expression upon exposure: did not occur
